# Laboratory results from PubChem BioAssay AID488847 (NMMLSC, 2010).
# Chains of the proteins cited; added tags and fusions are not shown.
# UniProt P25098, whole entry: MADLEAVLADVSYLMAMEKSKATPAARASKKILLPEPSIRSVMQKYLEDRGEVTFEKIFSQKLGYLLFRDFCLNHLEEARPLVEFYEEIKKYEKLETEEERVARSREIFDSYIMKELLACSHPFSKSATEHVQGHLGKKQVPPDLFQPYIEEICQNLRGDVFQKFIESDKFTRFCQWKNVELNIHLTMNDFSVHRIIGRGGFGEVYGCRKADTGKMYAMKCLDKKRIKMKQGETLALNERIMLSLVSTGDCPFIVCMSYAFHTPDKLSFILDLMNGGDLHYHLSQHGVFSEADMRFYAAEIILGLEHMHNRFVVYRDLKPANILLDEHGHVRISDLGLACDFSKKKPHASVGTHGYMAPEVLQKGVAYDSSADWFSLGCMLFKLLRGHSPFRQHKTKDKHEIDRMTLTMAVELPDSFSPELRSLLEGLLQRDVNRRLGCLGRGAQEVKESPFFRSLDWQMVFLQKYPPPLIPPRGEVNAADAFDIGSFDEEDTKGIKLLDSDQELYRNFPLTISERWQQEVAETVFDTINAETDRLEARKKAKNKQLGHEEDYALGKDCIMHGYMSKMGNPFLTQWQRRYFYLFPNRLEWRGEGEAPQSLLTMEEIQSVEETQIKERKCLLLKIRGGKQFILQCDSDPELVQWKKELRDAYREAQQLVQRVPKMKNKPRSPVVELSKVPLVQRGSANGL
# Only a part is listed here, and it is no random draw. Some structures show a salt or complex split into parts, the way the source records it. Active and inactive are the calls of the source.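 Rule for the calls: active = inhibition of aptamer binding above 40%, roughly 3 SD of noise, on plates passing a quality check; inactive = the rest.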
# Target: Beta-adrenergic receptor kinase 1 (Homo sapiens) (UniProt P25098)
# Assay: compounds blocking aptamer binding on GRK2 – biochemical, human GRK2, bead flow cytometry, HTS, primary screen (AID 488847);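 for inhibition of aptamer binding: median bead fluorescence of bound FAM aptamer so fluorescent compounds give negative values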
# Conditions: FAM-aptamer displacement from GRK2, at 10 µM; stronger effect = higher value
row,SMILES,inhibition of aptamer binding
1,CC(C)(C)c1ccc(OP(C)(=O)Nc2ccc(SC(F)(F)F)cc2)cc1 (stereo not drawn),inactive: 0%
2,Cc1cccc(C)c1OP(C)(N)=O (stereo not drawn),inactive: 0%
3,O=[N+]([O-])c1ccc2c(c1)C=Nc1ccccc1O2,inactive: 2%
4,Cc1ccc2nc3c(c(C)c2c1)CC(C(Cl)Cl)S3 (stereo not drawn),inactive
5,CCOC(=O)c1ccc(NP(C)(=O)Oc2ccccc2)cc1 (stereo not drawn),inactive: 0%
6,ClCCSc1nnc(-c2cccnc2)o1,inactive
7,COc1ccccc1OP(C)(=O)Nc1ccc(C)cc1 (stereo not drawn),inactive: 0%
8,CC(C)c1ccc(OP(=O)(Nc2ccccn2)Oc2ccccc2F)cc1 (stereo not drawn),inactive
9,Cc1ccc(NP(C)(=O)Oc2ccccc2)c(C)c1 (stereo not drawn),inactive: 3%
10,COc1ccccc1OP(C)(=O)Nc1cc(Cl)ccc1C (stereo not drawn),inactive: 2%
11,CCN(CC)C(=S)SC(NC=O)C(Cl)(Cl)Cl (stereo not drawn),inactive
12,COc1ccc(OP(C)(=O)Nc2cccc(F)c2)cc1 (stereo not drawn),inactive: 5%
13,Cc1cc(C)cc(OP(C)(N)=O)c1 (stereo not drawn),inactive: 0%
14,CCN(CC)CCCOC(=O)C(O)(c1ccccc1)c1ccccc1,inactive: 0%
15,Cc1cc(=O)[nH]c(N[N+](=O)[O-])n1,inactive
16,COc1cc(I)ccc1[As](=O)(O)O,inactive
17,COc1ccc(N/C(=N/P(=O)(N2CCOCC2)N2CCOCC2)N2CCOCC2)cc1,inactive
18,CN(C(=O)Cc1ccc(Cl)c(Cl)c1)[C@H]1CCCC[C@H]1N1CCCC1,inactive
19,COc1ccccc1OP(C)(=O)Nc1ccc(Br)cc1 (stereo not drawn),inactive: 1%
20,Cc1ccc(N/C(=N/P(=O)(N2CCOCC2)N2CCOCC2)N2CCOCC2)cc1,inactive
21,CN1CCCC(OC(=O)C(c2ccccc2)c2ccccc2)C1 (stereo not drawn),inactive
22,CN(C)CCOC(=O)C(O)(c1ccccc1)C1CCCC1 (stereo not drawn),inactive
23,Clc1ccc(Cl)c(NC2=NCC(CBr)S2)c1 (stereo not drawn),inactive
24,COc1ccc(OP(C)(=O)Nc2ccccn2)cc1 (stereo not drawn),inactive: 0%
25,O=C(NC(Sc1ccncn1)C(Cl)(Cl)Cl)c1ccccc1 (stereo not drawn),inactive

row,SMILES,inhibition of aptamer binding
1,Cc1c2non([O-])c-2c(C)[n+](=O)[n+]1[O-],inactive
2,Nc1cc(N)c2nonc2c1[N+](=O)[O-],inactive
3,Cc1c(NP(C)(=O)Oc2ccc(C(C)C)cc2)c(=O)n(-c2ccccc2)n1C (stereo not drawn),inactive: 1%
4,O=[N+]([O-])c1cc([N+](=O)[O-])c(Nc2ccccn2)c([N+](=O)[O-])c1,inactive: 0%
5,CC(C)CC(=O)NC(Sc1ccc(Cl)cc1)C(Cl)(Cl)Cl (stereo not drawn),inactive
6,CCc1ccc(OP(C)(=O)O)cc1,inactive: 2%
7,CP(=O)(Nc1ccccn1)Oc1ccccc1 (stereo not drawn),inactive: 0%
8,COc1ccccc1OP(C)(=O)Nc1ccc(C)cc1C (stereo not drawn),inactive: 0%
9,O=P(Nc1nc2ccc(Cl)cc2s1)(c1ccccc1)c1ccccc1,inactive
10,Cc1cc(C)cc(OP(C)(=O)Nc2cccc(C(F)(F)F)c2)c1 (stereo not drawn),inactive: 3%
11,COc1ccc(OP(C)(=O)Nc2ccccc2Br)cc1 (stereo not drawn),inactive: 2%
12,CCOP(=O)(Nc1ccccc1)OCC,inactive
13,COc1ccccc1OP(C)(=O)Nc1ccc(C)c(C)c1 (stereo not drawn),inactive: 0%
14,CN(C(=O)Cc1ccc(Cl)c(Cl)c1)[C@H]1CCCC[C@@H]1N1CCCC1,inactive
15,Cc1nc2ccc3ccccc3c2o1.O=[N+]([O-])c1cc([N+](=O)[O-])c(O)c([N+](=O)[O-])c1,inactive: 2%
16,CP(=O)(Nc1ccc(Cl)cc1Cl)Oc1ccccc1 (stereo not drawn),inactive: 0%
17,CP(=O)(OCCOc1ccccc1)OCCOc1ccccc1,inactive: 1%
18,CCN(N=Nc1nonc1N)c1nonc1N,inactive
19,Nc1ccc2c(ccc3cccnc32)n1.O=[N+]([O-])c1cc([N+](=O)[O-])c(O)c([N+](=O)[O-])c1,inactive: 1%
20,CP(=O)(OC12CC3CC(CC(C3)C1)C2)OC12CC3CC(CC(C3)C1)C2,inactive: 0%
21,CCOC(=O)c1ccc(NP(C)(=O)Oc2ccc(Cl)cc2)cc1 (stereo not drawn),inactive: 2%
22,O=C(Nc1cc([As](=O)(O)O)ccc1O)c1ccccc1,inactive
23,CC(C)(C)C(=O)NC(Sc1ccncn1)C(Cl)(Cl)Cl (stereo not drawn),inactive
24,CCN(CC)CC(O)COC(=O)C(O)(c1ccccc1)C1CCCCC1 (stereo not drawn),inactive: 2%
25,COc1ccc(OP(C)(=O)Nc2ccc(Br)cc2)cc1 (stereo not drawn),inactive: 0%

row,SMILES,inhibition of aptamer binding
1,CP(=O)(Oc1ccccc1)N1CCOC1=O (stereo not drawn),inactive: 2%
2,CCc1ccc(OP(C)(=O)Nc2cccnc2)cc1 (stereo not drawn),inactive: 0%
3,CCc1nc2c(n1)c1c(non1O)c1c2no[n+]1[O-],inactive
4,CC(=O)N1C2C3N(C(C)=O)C1C1N(C(C)=O)C(C(N1C(C)=O)N3C(C)=O)N2C(C)=O,inactive
5,COc1ccccc1OP(C)(=O)Nc1c(C)n(C)n(-c2ccccc2)c1=O (stereo not drawn),inactive: 0%
6,O=C(OCCCN1CCCC1)C(O)(c1ccccc1)C1CCCCC1 (stereo not drawn),inactive: 0%
7,CCN(/C(=N/P(=O)(N1CCOCC1)N1CCOCC1)N1CCOCC1)c1ccc(OC)cc1,inactive
8,CP(=O)(Nc1ccc(Cl)cc1)Oc1ccc(F)cc1 (stereo not drawn),inactive: 0%
9,COc1ccccc1OP(C)(=O)Nc1ccccc1Br (stereo not drawn),inactive: 3%
10,CC(C)(C)c1ccc(OP(C)(=O)O)cc1,inactive: 1%
11,CC1CCN(C(=O)Oc2c(Cl)cc(Cl)c3cccnc23)CC1,inactive
12,CN(C)C(=O)c1c([N+](=O)[O-])cc([N+](=O)[O-])cc1[N+](=O)[O-],inactive: 1%
13,CN(C)C(=O)OCCc1n(C)cc[n+]1C,inactive
14,CC(C)C(=O)NC(Sc1ccccc1)C(Cl)(Cl)Cl (stereo not drawn),inactive
15,CP(=O)(Nc1ccc(SC(F)(F)F)cc1)Oc1ccc(F)cc1 (stereo not drawn),inactive: 0%
16,CCOP(C)(=S)SCC(=O)NC(C)(CC)C(=O)O (stereo not drawn),inactive: 0%
17,CP(=O)(Nc1ccc2c(c1)OCCO2)Oc1ccccc1 (stereo not drawn),inactive: 0%
18,Cc1ccccc1NP(C)(=O)Nc1ccccc1C,inactive: 1%
19,COc1ccc(OP(C)(=O)Nc2cccc(Br)c2)cc1 (stereo not drawn),inactive: 0%
20,COc1ccc(NP(C)(=O)Oc2ccccc2OC)cc1 (stereo not drawn),inactive: 3%
21,O=P(Nc1nc2ccccc2s1)(c1ccccc1)c1ccccc1,inactive
22,CN(C)CCOC(=O)C(O)(c1ccccc1)C1CCCCC1 (stereo not drawn),inactive: 1%
23,C[C@H]1OP(=O)(Oc2ccccc2)[C@H](O)[C@H](O)[C@H]1N=[N+]=[N-] (stereo partly drawn),inactive
24,O=[N+]([O-])c1cc([N+](=O)[O-])c(NCC2CCS(=O)(=O)C2)c([N+](=O)[O-])c1 (stereo not drawn),inactive: 0%
25,O=[N+]([O-])c1ccc(OP2(=O)COCCO2)cc1 (stereo not drawn),inactive: 0%

row,SMILES,inhibition of aptamer binding
1,CC(=O)NC(SC(=S)N(C)C)C(Cl)(Cl)Cl (stereo not drawn),inactive
2,O=C(OC1CN2CCC1CC2)c1cccc(Cl)c1 (stereo not drawn),inactive
3,Nc1ccc([As](=O)(O)c2ccc([N+](=O)[O-])cc2)cc1,inactive
4,O=C(NC1CCS(=O)(=O)C1)NP(=S)(Oc1ccccc1)Oc1ccccc1 (stereo not drawn),inactive
5,COc1ccc(OP(C)(=O)Nc2ccc(SC(F)(F)F)cc2)cc1 (stereo not drawn),inactive: 0%
6,CCOC(=O)c1ccc(NP(C)(=O)Oc2ccc(F)cc2)cc1 (stereo not drawn),inactive: 9%
7,CCC(=O)N1C2C3N(C(=O)CC)C1C1N(C(=O)CC)C(C(N1C(=O)CC)N3C(=O)CC)N2C(=O)CC,inactive
8,CCN(CC)CCCOC(=O)C(O)(c1ccccc1)C1CCCCC1 (stereo not drawn),inactive
9,COC(=O)c1cc2c(s1)N=C(c1ccccc1)N(C)P2(=O)N1CCOCC1 (stereo not drawn),inactive
10,CC(=O)NC(SC(=S)N(CC(C)C)CC(C)C)C(Cl)(Cl)Cl (stereo not drawn),inactive
11,CC(NC(=O)COC(=O)C(O)(c1ccccc1)c1ccccc1)c1ccccc1 (stereo not drawn),inactive
12,O=[N+]([O-])c1cc([N+](=O)[O-])c(OC2CCCCC2O)c([N+](=O)[O-])c1 (stereo not drawn),inactive: 3%
13,CCCCCOc1ccc(NP(C)(=O)Oc2ccc(Cl)cc2Cl)cc1 (stereo not drawn),inactive: 2%
14,CP(=O)(Nc1ccccc1)Oc1ccc(F)cc1 (stereo not drawn),inactive: 0%
15,CCOc1ccc(C2=NCC(CBr)S2)cc1 (stereo not drawn),inactive
16,CC(C)(C)C(=O)NC(Sc1ccccc1)C(Cl)(Cl)Cl (stereo not drawn),inactive
17,CC(C)c1ccc(OP(C)(=O)Nc2ccc(SC(F)(F)F)cc2)cc1 (stereo not drawn),inactive: 0%
18,CP(=O)(Nc1ccccc1F)Oc1ccccc1 (stereo not drawn),inactive: 0%
19,O=C(OCCN1CCN(CCOCc2ccccc2)CC1)C(O)(c1ccccc1)c1ccccc1,inactive: 0%
20,Cc1ccccc1CN(C)C(=O)COC(=O)C(O)(c1ccccc1)c1ccccc1,inactive
21,C[C@H]1OP(=O)(Oc2ccccc2)C[C@@H]2O[C@@H]21 (stereo partly drawn),inactive
22,O=C(OC1CN2CCC1CC2)c1ccc([N+](=O)[O-])cc1 (stereo not drawn),inactive: 3%
23,COc1ccc2c(c1O)-c1c(O)c(OC)cc3c1[C@H](C2)[N+](C)(C)CC3.O=[N+]([O-])c1cc([N+](=O)[O-])c([O-])c([N+](=O)[O-])c1[O-],inactive: 4%
